From ChEMBL document CHEMBL1124922 (J Med Chem, 1990)

Legend:
[1] = Half-life was determined in culture medium at 37 degrees Celsius in alpha MEM
[2] = Evaluated for inhibitory concentration against UV-4 cells under aerobic conditions with a compound exposure of 1 h
[3] = Ratio = (aerobic IC50 / hypoxic IC50) determined against UV-4 cells with an 18 hr exposure
[4] = Evaluated for inhibitory concentration against UV-4 cells under aerobic conditions with a compound exposure of 18 h
[5] = Half-life in culture medium was determined at 37 degrees Celsius in alpha MEM with 10% fetal calf-serum (FCS); details: cattle

Cc1cccc(N(CCCl)CCCl)c1
T1/2 [1]: 1.42 h
pIC50 [2]: 5.92
Ratio [3]: 0.94
pIC50 [4]: 6.82
T1/2 [5]: 3.5 h

pIC50: −log10 of the molar value. This is a selection: effects in other tests are not listed, and their absence says nothing.
